Measured values taken from article PMC13499021, “Cellular Assays for Dynamic Quantification of Deubiquitinase Activity and Inhibition” (Journal of molecular biology, 2023).

The chains behind the UniProt entries cited, without tags or fusion partners. Where a name states a change or a piece, a line headed by the entry shows the natural chain unless it says otherwise. A line that says so, or that is headed by a name, gives the form on record, which may keep a tag or linker.
UniProt Q93009, with tags, fused parts or gaps limits assumed, stated change not applied: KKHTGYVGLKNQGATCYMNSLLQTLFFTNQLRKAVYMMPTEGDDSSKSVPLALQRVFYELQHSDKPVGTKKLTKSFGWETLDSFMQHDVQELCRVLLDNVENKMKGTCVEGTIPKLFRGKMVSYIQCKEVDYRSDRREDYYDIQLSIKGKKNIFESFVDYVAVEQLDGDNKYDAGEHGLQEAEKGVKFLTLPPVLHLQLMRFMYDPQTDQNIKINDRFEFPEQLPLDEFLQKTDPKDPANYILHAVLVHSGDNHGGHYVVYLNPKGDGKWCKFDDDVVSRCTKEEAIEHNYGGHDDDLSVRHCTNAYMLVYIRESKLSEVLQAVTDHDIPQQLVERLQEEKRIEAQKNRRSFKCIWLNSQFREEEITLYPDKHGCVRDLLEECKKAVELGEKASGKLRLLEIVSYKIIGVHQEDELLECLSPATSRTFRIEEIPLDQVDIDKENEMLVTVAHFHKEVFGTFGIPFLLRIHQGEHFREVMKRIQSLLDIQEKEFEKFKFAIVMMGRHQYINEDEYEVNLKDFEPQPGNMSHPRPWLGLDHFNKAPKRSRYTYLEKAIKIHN

Target: GFPNb^R35Q-USP7 (Homo sapiens, UniProt Q93009)
Conditions: for potency: 7-point dose response, USP7 cell line

Structure (SMILES) | potency | IC50 (read-out: cellular IC50, 7-point 4-fold dose response, 24 h of treatment, 293T-UbR-C3 +GFPNbR35Q-USP7, Figure 5D) [µM]
CCc1c(-c2ccc(C(=O)NC)nc2)cnc(N)c1-c1ccc(O)cc1 | low micromolar range | 3.02
CCc1c(-c2ccc3[nH]ncc3c2)cnc(N)c1-c1ccc(O)cc1 | low micromolar range | 
